CycPeptMPDB entries from one study

Data: CycPeptMPDB; original report Kelly et al. 2021, doi:10.1021/jacs.0c06115.

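Conditions beyond the assay type are not listed; see the original paper. Other peptides of the study may be missing here. Peptides that the database sets to -10, its floor, are left out.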

PAMPA is the parallel artificial membrane permeability assay, which has no cells and reads passive diffusion.
Permeability is given as log10 of P in cm/s; higher (less negative) is more permeable.

Listed for CC(=O)N1CCC[C@H]1C(=O)N[C@@H]1C(=O)N(C)[C@H](CC(C)C)C(=O)N[C@H](CC(C)C)C(=O)N(C)[C@H](CC(C)C)C(=O)N[C@@H](CC(C)C)C(=O)N[C@H](C)C(=O)N[C@@H](CC(C)C)C(=O)N2CCC[C@@H]2C(=O)O[C@@H]1C: PAMPA -5.67 (log10 cm/s). CCC[C@H]1NC(=O)[C@@H](NC(=O)[C@@H](CC(C)C)N(C)C(=O)[C@@H]2CCCN2C(C)=O)[C@@H](C)OC(=O)[C@@H]2CCCN2C(=O)[C@H](CC(C)C)NC(=O)[C@@H](C)N(C)C(=O)[C@@H](CC2CCCCC2)NC(=O)[C@H](CC)NC1=O has PAMPA -5.47 (log10 cm/s). For CCC[C@H]1NC(=O)[C@@H](NC(=O)[C@@H](CC(C)C)N(C)C(=O)[C@@H]2CCCN2C(C)=O)[C@@H](C)OC(=O)[C@@H]2CCCN2C(=O)[C@H](CC(C)C)NC(=O)[C@@H](C)N(C)C(=O)[C@@H](CC2CCCCC2)NC(=O)[C@H](CC(C)C)NC1=O the data give PAMPA -5.69 (log10 cm/s). CC(=O)N[C@@H]1C(=O)N2CCC[C@H]2C(=O)N(C)[C@H](CC(C)C)C(=O)N[C@@H](CC(C)C)C(=O)N[C@@H](CC(C)C)C(=O)N(C)[C@H](CC(C)C)C(=O)N[C@@H](C)C(=O)N[C@@H](CC(C)C)C(=O)N2CCC[C@@H]2C(=O)O[C@@H]1C is reported with PAMPA -6.50 (log10 cm/s). CC[C@H]1NC(=O)[C@@H](NC(=O)[C@@H](CC(C)C)N(C)C(=O)[C@@H]2CCCN2C(C)=O)[C@@H](C)OC(=O)[C@@H]2CCCN2C(=O)[C@H](CC(C)C)NC(=O)[C@@H](C)N(C)C(=O)[C@@H](CC2CCCCC2)NC(=O)[C@H](CCc2ccccc2)NC1=O has PAMPA -5.96 (log10 cm/s). The entry for CC(=O)N[C@@H]1C(=O)N2CCC[C@H]2C(=O)N(C)[C@H](CC(C)C)C(=O)N[C@@H](CC(C)C)C(=O)N(C)[C@H](CC(C)C)C(=O)N[C@@H](CC(C)C)C(=O)N[C@@H](C)C(=O)N[C@@H](CC(C)C)C(=O)N2CCC[C@@H]2C(=O)O[C@@H]1C lists PAMPA -5.86 (log10 cm/s).

For CCC[C@@H]1NC(=O)[C@@H](Cc2cccc3ccccc23)NC(=O)[C@@H](NC(=O)[C@@H](CC(C)C)N(C)C(=O)[C@@H]2CCCN2C(C)=O)[C@@H](C)OC(=O)[C@@H]2CCCN2C(=O)[C@H](CC(C)C)NC(=O)[C@@H](C)N(C)C(=O)[C@@H](CC(C)C)NC1=O the data give PAMPA -5.32 (log10 cm/s). Listed for CC(=O)N[C@@H]1C(=O)N2CCC[C@H]2C(=O)N(C)[C@H](CC(C)C)C(=O)N[C@H](CC(C)C)C(=O)N(C)[C@@H](CC(C)C)C(=O)N(C)[C@H](CC(C)C)C(=O)N[C@@H](C)C(=O)N[C@@H](CC(C)C)C(=O)N2CCC[C@@H]2C(=O)O[C@@H]1C: PAMPA -6.42 (log10 cm/s). Listed for CC(=O)N1CCC[C@H]1C(=O)N[C@@H]1C(=O)N(C)[C@H](CC(C)C)C(=O)N(C)[C@@H](CC(C)C)C(=O)N[C@@H](CC(C)C)C(=O)N(C)[C@H](CC(C)C)C(=O)N(C)[C@@H](C)C(=O)N[C@@H](CC(C)C)C(=O)N2CCC[C@@H]2C(=O)O[C@@H]1C: PAMPA -5.44 (log10 cm/s). For CC(=O)N[C@@H]1C(=O)N2CCC[C@H]2C(=O)N(C)[C@H](CC(C)C)C(=O)N[C@@H](CC(C)C)C(=O)N(C)[C@H](CC(C)C)C(=O)N[C@H](CC(C)C)C(=O)N(C)[C@@H](C)C(=O)N[C@@H](CC(C)C)C(=O)N2CCC[C@@H]2C(=O)O[C@@H]1C the data give PAMPA -4.96 (log10 cm/s). The entry for CC(=O)N1CCC[C@H]1C(=O)N[C@@H]1C(=O)N[C@H](CC(C)C)C(=O)N(C)[C@@H](CC(C)C)C(=O)N[C@@H](CC(C)C)C(=O)N[C@@H](CC(C)C)C(=O)N[C@@H](C)C(=O)N[C@@H](CC(C)C)C(=O)N2CCC[C@@H]2C(=O)O[C@@H]1C lists PAMPA -6.11 (log10 cm/s). For CC(=O)N[C@@H]1C(=O)N2CCC[C@H]2C(=O)N(C)[C@H](CC(C)C)C(=O)N(C)[C@H](CC(C)C)C(=O)N[C@H](CC(C)C)C(=O)N[C@H](CC(C)C)C(=O)N[C@@H](C)C(=O)N[C@@H](CC(C)C)C(=O)N2CCC[C@@H]2C(=O)O[C@@H]1C the data give PAMPA -6.64 (log10 cm/s).

For CC(=O)N1CCC[C@H]1C(=O)N(C)[C@H](CC(C)C)C(=O)N[C@@H]1C(=O)N[C@H](CC(C)C)C(=O)N[C@@H](CC(C)C)C(=O)N[C@H](CC2CCCCC2)C(=O)N(C)[C@H](C)C(=O)N[C@@H](CC(C)C)C(=O)N2CCC[C@H]2C(=O)O[C@@H]1C the data give PAMPA -5.76 (log10 cm/s). The entry for CC(=O)N[C@@H]1C(=O)N2CCC[C@H]2C(=O)N(C)[C@H](CC(C)C)C(=O)N(C)[C@H](CC(C)C)C(=O)N(C)[C@@H](CC(C)C)C(=O)N(C)[C@@H](CC(C)C)C(=O)N[C@@H](C)C(=O)N[C@@H](CC(C)C)C(=O)N2CCC[C@@H]2C(=O)O[C@@H]1C lists PAMPA -5.94 (log10 cm/s). For CC(=O)N1CCC[C@H]1C(=O)N[C@@H]1C(=O)N(C)[C@H](CC(C)C)C(=O)N(C)[C@H](CC(C)C)C(=O)N(C)[C@@H](CC(C)C)C(=O)N(C)[C@@H](CC(C)C)C(=O)N[C@@H](C)C(=O)N[C@@H](CC(C)C)C(=O)N2CCC[C@@H]2C(=O)O[C@@H]1C the data give PAMPA -5.15 (log10 cm/s). The entry for CC[C@H]1NC(=O)[C@H](Cc2ccc(OC)cc2)NC(=O)[C@@H](CC2CCCCC2)NC(=O)[C@@H](NC(=O)[C@@H](CC(C)C)N(C)C(=O)[C@@H]2CCCN2C(C)=O)[C@@H](C)OC(=O)[C@@H]2CCCN2C(=O)[C@H](CC(C)C)NC(=O)[C@@H](C)N(C)C1=O lists PAMPA -5.64 (log10 cm/s). For CCC[C@@H]1NC(=O)[C@@H](CCC)NC(=O)[C@@H](NC(=O)[C@@H](CC(C)C)N(C)C(=O)[C@@H]2CCCN2C(C)=O)[C@@H](C)OC(=O)[C@@H]2CCCN2C(=O)[C@H](CC(C)C)NC(=O)[C@@H](C)N(C)C(=O)[C@@H](CC2CCCCC2)NC1=O the data give PAMPA -5.40 (log10 cm/s). The entry for CC(=O)N[C@@H]1C(=O)N2CCC[C@H]2C(=O)N(C)[C@H](CC(C)C)C(=O)N[C@H](CC(C)C)C(=O)N(C)[C@@H](CC(C)C)C(=O)N[C@H](CC(C)C)C(=O)N(C)[C@H](C)C(=O)N[C@@H](CC(C)C)C(=O)N2CCC[C@@H]2C(=O)O[C@@H]1C lists PAMPA -5.93 (log10 cm/s).